{"source": "patent US20100152129A1", "about": "“Novel synergistic combination of gemcitabine with P276-00 or P1446A in treatment of cancer” (priority 2008, published 2010)", "tested_on": "Panc-1 cells", "test": "CCK-8 based cytotoxicity assay", "format": "cell-based", "text": "The combination of Gemcitabine with P1446A was screened for its synergistic effect in Panc-1 by CCK-8 (Cell counting kit-8) based cytotoxicity assay. CCK-8 based cytotoxicity assay is a sensitive nonradioactive colorimetric assay for determining the number of viable cells in cell proliferation and cytotoxicity assays. WST-8 (2-(2-methoxy-4-nitrophenyl)-3-(4-nitrophenyl)-5-(2,4-disulfophenyl)-2H tetrazolium, monosodium salt) is bioreduced by cellular dehydrogenases to an orange formazan product that is soluble in tissue culture medium. The amount of formazan produced is directly proportional to the number of living cells.\nTest System: The Panc-1 cell line was procured from ATCC (American Tissue type Culture Collection USA, catalog number: CRL-1469) and the frozen vial was stored in liquid nitrogen container.\nMethodology: Gemcitabine at final concentrations of 1 nM, 10 nM and 100 nM and P1446A at a final concentration of 3 nM, 10 nM, 30 nM, 100 nM and 300 nM were analyzed in single dose and in all possible combinations of the dose range for the two drugs mentioned above. Panc-1 cells were seeded at a density of 3000 cells/well in a 96 well plate and allowed to recover for 24 hrs in a CO2 incubator at 37° C. […] At the end of incubation CCK-8 was added and kept at 37° C. for 3 hrs following which absorbance was measured at 450 nm.", "note": "“And” between values parts separate entries of the source, which are not always exact repeats. Equal entries are not always repeated.", "data": [{"smiles": "CN1CC[C@@H](c2c(O)cc(O)c3c(=O)cc(-c4ccc(C(F)(F)F)cc4Cl)oc23)[C@@H]1CO.Cl", "note": "(relative stereo) [P1446A]", "values": [{"measurement": "% Cytotoxicity", "setting": "P1446A 30 nM, 48 hrs", "value": 14.163, "unit": "%"}, {"measurement": "% Cytotoxicity", "setting": "P1446A 100 nM, 72 hrs, hydrochloride", "value": "29.6% and 29.603%"}]}]}
